# Results as given in patent US10167280B2, “Substituted oxopyridine derivatives” (BAYER PHARMA AKTIENGESELLSCHAFT, priority 2014, dated 2019).
# Protein sequences, listed by entry. Tags and fused reporters are not part of them. Residues count along the entry.
# UniProt P03952, 20-390 partner: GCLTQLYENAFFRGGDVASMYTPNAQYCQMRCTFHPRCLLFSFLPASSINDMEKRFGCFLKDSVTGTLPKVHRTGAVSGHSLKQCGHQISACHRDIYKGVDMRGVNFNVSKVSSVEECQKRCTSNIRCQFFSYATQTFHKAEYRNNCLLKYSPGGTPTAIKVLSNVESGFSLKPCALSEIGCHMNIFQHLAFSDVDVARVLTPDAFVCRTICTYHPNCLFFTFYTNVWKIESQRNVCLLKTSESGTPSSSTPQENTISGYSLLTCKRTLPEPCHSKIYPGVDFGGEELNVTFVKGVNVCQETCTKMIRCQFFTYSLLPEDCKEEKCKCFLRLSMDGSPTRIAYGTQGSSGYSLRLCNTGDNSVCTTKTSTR
# UniProt P03952, 391-638: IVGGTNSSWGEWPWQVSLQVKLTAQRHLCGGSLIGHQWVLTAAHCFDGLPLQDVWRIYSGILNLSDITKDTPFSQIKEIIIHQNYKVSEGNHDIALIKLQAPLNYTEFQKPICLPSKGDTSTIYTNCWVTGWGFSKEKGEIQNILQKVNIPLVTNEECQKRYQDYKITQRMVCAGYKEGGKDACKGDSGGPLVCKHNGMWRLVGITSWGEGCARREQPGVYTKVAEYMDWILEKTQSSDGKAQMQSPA
# UniProt P03951, 19-387 partner: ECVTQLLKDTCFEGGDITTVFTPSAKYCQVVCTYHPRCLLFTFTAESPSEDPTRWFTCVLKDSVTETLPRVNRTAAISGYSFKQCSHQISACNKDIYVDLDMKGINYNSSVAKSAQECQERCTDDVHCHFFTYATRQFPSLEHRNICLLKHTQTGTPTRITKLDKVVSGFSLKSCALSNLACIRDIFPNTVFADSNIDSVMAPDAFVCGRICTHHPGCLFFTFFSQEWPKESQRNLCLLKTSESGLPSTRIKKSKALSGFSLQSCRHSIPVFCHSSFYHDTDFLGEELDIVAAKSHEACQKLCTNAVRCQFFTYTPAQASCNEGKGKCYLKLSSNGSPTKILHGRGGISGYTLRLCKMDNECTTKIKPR
# UniProt P03951, 388-625: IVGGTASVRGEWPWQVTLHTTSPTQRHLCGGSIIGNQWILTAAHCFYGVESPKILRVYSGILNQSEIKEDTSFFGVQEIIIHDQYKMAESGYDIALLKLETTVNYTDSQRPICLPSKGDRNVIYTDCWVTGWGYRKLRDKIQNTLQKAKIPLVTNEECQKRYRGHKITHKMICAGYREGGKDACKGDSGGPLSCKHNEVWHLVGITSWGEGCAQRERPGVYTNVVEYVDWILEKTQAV
# Legend:
# human plasma kallikrein = human plasma kallikrein (Homo sapiens (Human), UniProt P03952); assay: Determination of the plasma kallikrein activity (fluorogenic peptide substrate H-Pro-Phe-Arg-AMC); type: biochemical; conditions: Table B; plasma kallikrein inhibition, 30 min at 22° C., fluorescence
# Protocol: (§1) To determine the plasma kallikrein inhibition of the substances according to the invention, a biochemical test system is used which utilizes the reaction of a peptidic plasma kallikrein substrate to determine the enzymatic activity of human plasma kallikrein. Here, plasma kallikrein cleaves from the peptic plasma kallikrein substrate the C-terminal aminomethylcoumarin (AMC), the fluorescence of which is measured. The determinations are carried out in microtitre plates.
# 1 μl of the diluted substance solutions is placed into each of the wells of white microtitre plates from Greiner (384 wells). 20 μl of assay buffer (50 mM Tris/HCl pH 7.4; 100 mM sodium chloride solution; 5 mM of calcium chloride solution; 0.1% of bovine serum albumin) and 20 μl of plasma kallikrein from Kordia (0.6 nM in assay buffer) are then added successively. After 15 min of incubation, the enzyme reaction is started by addition of 20 μl of the substrate H-Pro-Phe-Arg-AMC dissolved in assay buffer (10 μM in assay buffer) from Bachem, the mixture is incubated at room temperature (22° C.) for 30 min and fluorescence is then measured (excitation: 360 nm, emission: 460 nm). The measured emissions of the test batches with test substance are compared to those of control batches without test substance (only dimethyl sulphoxide instead of test substance in dimethyl sulphoxide), and IC50 values are calculated from the concentration/activity relationships.
# human factor XIa = human factor XIa (Homo sapiens (Human), UniProt P03951); assay: Measurement of FXIa inhibition (fluorogenic peptide substrate Boc-Glu(OBzl)-Ala-Arg-AMC); type: biochemical; conditions: Table A, 30 min at 22° C., fluorescence
# Protocol: as §1, with “The factor XIa” for “To determine the plasma kallikrein”, “invention is determined using” for “invention,”, “system” for “system is used”, “factor XIa” for “plasma kallikrein”, “factor XIa.” for “plasma kallikrein.”
# 1 μl of the diluted substance solutions is placed into each of the wells of white microtitre plates from Greiner (384 wells). […] After […] of incubation, the enzyme reaction is started by addition of 20 μl of the factor XIa substrate Boc-Glu(OBzl)-Ala-Arg-AMC dissolved in assay buffer (10 μM in assay buffer) from Bachem, the mixture is incubated at room temperature (22° C.) for 30 min and fluorescence is then measured (excitation: 360 nm, emission: 460 nm). The measured emissions of the test batches with test substance are compared to those of control batches without test substance (only dimethyl sulphoxide instead of test substance in dimethyl sulphoxide), and IC50 values are calculated from the concentration/activity relationships.
SMILES,IC50 (human plasma kallikrein) [nM],IC50 (human factor XIa) [nM]
"COc1cn(C(Cc2ccncc2)C(=O)Nc2ccc(C(N)=O)nc2)c(=O)cc1-c1cc(Cl)ccc1C#N (single isomer, unassigned; enantiomer 2) [Example 21, 5-({2-[4-(5-Chloro-2-cyanophenyl)-5-methoxy-2-oxopyridin-1(2H)-yl]-3-(pyridin-4-yl)propanoyl}amino)pyridine-2-carboxamide (enantiomer 2)]",4,
"CNC(=O)c1ccc(NC(=O)C(CC2=NOCC2)n2cc(OC)c(-c3cc(Cl)ccc3C#N)cc2=O)cn1 (racemic) [Example 42, 5-({2-[4-(5-Chloro-2-cyanophenyl)-5-methoxy-2-oxopyridin-1(2H)-yl]-3-(4,5-dihydro-1,2-oxazol-3-yl)propanoyl}amino)-N-methylpyridine-2-carboxamide (racemate)]",30,
COc1cn(C(Cc2ccccn2)C(=O)Nc2ccc(C(N)=O)nc2)c(=O)cc1-c1cc(Cl)ccc1C#N (stereo not drawn) [Example 6],22,20
"COc1cn(C(Cc2cnco2)C(=O)Nc2cnc(C(N)=O)c(F)c2)c(=O)cc1-c1cc(Cl)ccc1C#N (racemic) [Example 37, 5-({2-[4-(5-Chloro-2-cyanophenyl)-5-methoxy-2-oxopyridin-1(2H)-yl]-3-(1,3-oxazol-5-yl)propanoyl}amino)-3-fluoropyridine-2-carboxamide (racemate)]",14,
"COCCC(C(=O)Nc1ccc(C(N)=O)nc1)n1cc(OC)c(-c2cc(Cl)c(F)cc2C#N)cc1=O (racemic) [Example 47, 5-({2-[4-(5-Chloro-2-cyano-4-fluorophenyl)-5-methoxy-2-oxopyridin-1(2H)-yl]-4-methoxybutanoyl}amino)pyridine-2-carboxamide (racemate)]",180,220
"COc1cn(C(Cc2ccn(C)n2)C(=O)Nc2ccc(C(N)=O)nc2)c(=O)cc1-c1cc(C)ccc1C#N (racemic) [Example 30, 5-({2-[4-(2-Cyano-5-methylphenyl)-5-methoxy-2-oxopyridin-1(2H)-yl]-3-(1-methyl-1H-pyrazol-3-yl)propanoyl}amino)pyridine-2-carboxamide (racemate)]",17,20
"COc1cn(C(Cc2ccncc2)C(=O)Nc2ccc(C(N)=O)nc2)c(=O)cc1-c1cc(Cl)ccc1C#N (single isomer, unassigned; enantiomer 1) [Example 44, 5-({2-[4-(5-Chloro-2-cyanophenyl)-5-methoxy-2-oxopyridin-1(2H)-yl]-3-(pyridin-4-yl)propanoyl}amino)pyridine-2-carboxamide (enantiomer 1)]",760,
"CNC(=O)c1ccc(NC(=O)C(CCOC)n2cc(OC)c(-c3cc(Cl)ccc3C#N)cc2=O)cn1 (single isomer, unassigned; enantiomer 2) [Example 27, 5-({2-[4-(5-Chloro-2-cyanophenyl)-5-methoxy-2-oxopyridin-1(2H)-yl]-4-methoxybutanoyl}amino)-N-methylpyridine-2-carboxamide (enantiomer 2)]",6.2,
"CNC(=O)c1ccc(NC(=O)C(CCOC)n2cc(OC)c(-c3cc(Cl)ccc3C#N)cc2=O)cn1 (racemic) [Example 26, 5-({2-[4-(5-Chloro-2-cyanophenyl)-5-methoxy-2-oxopyridin-1(2H)-yl]-4-methoxybutanoyl}amino)-N-methylpyridine-2-carboxamide (racemate)]",6.9,
COc1cn(C(Cc2ccncc2)C(=O)Nc2ccc(C(N)=O)nc2)c(=O)cc1-c1cc(Cl)ccc1C#N (stereo not drawn) [Example 9],8,9
"CNC(=O)c1ccc(NC(=O)C(Cc2ccn(C)n2)n2cc(OC)c(-c3cc(C)ccc3C#N)cc2=O)cn1 (racemic) [Example 29, 5-({2-[4-(2-Cyano-5-methylphenyl)-5-methoxy-2-oxopyridin-1(2H)-yl]-3-(1-methyl-1H-pyrazol-3-yl)propanoyl}amino)-N-methylpyridine-2-carboxamide (racemate)]",8.2,
"COc1cn(C(Cc2ncco2)C(=O)Nc2ccc(C(N)=O)nc2)c(=O)cc1-c1cc(Cl)ccc1C#N (racemic) [Example 36, 5-({2-[4-(5-Chloro-2-cyanophenyl)-5-methoxy-2-oxopyridin-1(2H)-yl]-3-(1,3-oxazol-2-yl)propanoyl}amino)pyridine-2-carboxamide (racemate)]",14,
"CNC(=O)c1ccc(NC(=O)C(CCOC)n2cc(OC)c(-c3cc(NC)ccc3C#N)cc2=O)cn1 (racemic) [Example 45, 5-[(2-{4-[2-Cyano-5-(methylamino)phenyl]-5-methoxy-2-oxopyridin-1(2H)-yl}-4-methoxybutanoyl)amino]-N-methylpyridine-2-carboxamide (racemate)]",360,
"COc1cn(C(Cc2ccn(C)n2)C(=O)Nc2cnc(C(N)=O)c(F)c2)c(=O)cc1-c1cc(Cl)ccc1C#N (racemic) [Example 31, 5-({2-[4-(5-Chloro-2-cyanophenyl)-5-methoxy-2-oxopyridin-1(2H)-yl]-3-(1-methyl-1H-pyrazol-3-yl)propanoyl}amino)-3-fluoropyridine-2-carboxamide (racemate)]",61,
"CNC(=O)c1ccc(NC(=O)C(Cc2ccn(C)n2)n2cc(C)c(-c3cc(Cl)ccc3C#N)cc2=O)cn1 (racemic) [Example 43, 5-({2-[4-(5-Chloro-2-cyanophenyl)-5-methyl-2-oxopyridin-1(2H)-yl]-3-(1-methyl-1H-pyrazol-3-yl)propanoyl}amino)-N-methylpyridine-2-carboxamide (racemate)]",65,55
"COc1cn(C(Cc2ccn(C)n2)C(=O)Nc2ccc(C(N)=O)nc2)c(=O)cc1-c1cc(Cl)ccc1C#N (racemic) [Example 19, 5-({2-[4-(5-Chloro-2-cyanophenyl)-5-methoxy-2-oxopyridin-1(2H)-yl]-3-(1-methyl-1H-pyrazol-3-yl)propanoyl}amino)pyridine-2-carboxamide (racemate)]",4.3,
